Measurements from US7601357B2 (priority 2005, dated 2009).

Molecular target: T1, LIPY (Mycobacterium tuberculosis, UniProt I6Y2J4)
T1 construct: The 24 open-reading frames (ORFs) were amplified from the genomic DNA of M. tuberculosis H37Rv; 6xHis (pET200 D-TOPO N-terminal fusion) (N); made in house; host or cells: E. coli BL21 Star (DE3)
T1 sequence (I6Y2J4 1-437): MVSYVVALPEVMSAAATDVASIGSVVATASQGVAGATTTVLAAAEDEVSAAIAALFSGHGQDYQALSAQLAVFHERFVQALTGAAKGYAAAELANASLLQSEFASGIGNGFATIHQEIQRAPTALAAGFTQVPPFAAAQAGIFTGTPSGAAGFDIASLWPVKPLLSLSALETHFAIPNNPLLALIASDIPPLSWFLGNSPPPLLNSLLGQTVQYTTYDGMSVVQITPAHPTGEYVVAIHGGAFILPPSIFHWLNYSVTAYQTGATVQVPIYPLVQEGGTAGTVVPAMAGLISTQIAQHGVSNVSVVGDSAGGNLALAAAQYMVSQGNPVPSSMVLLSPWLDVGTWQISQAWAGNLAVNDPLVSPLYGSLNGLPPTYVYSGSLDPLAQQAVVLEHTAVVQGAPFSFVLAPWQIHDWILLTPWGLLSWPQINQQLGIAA
Assay type: biochemical

In the case of `O=S(=O)(F)Cc1ccccc1` [PMSF, phenylmethanesulfonyl fluoride, reference compound], the “Inhibition of LIPY activity” value is reported as 75%.
